Laboratory results as given in paper PMC7392148 (Bioorganic & medicinal chemistry, 2020).

Sequences of proteins named here, by UniProt entry; tags and fusion partners are left off.
UniProt P30518, whole entry: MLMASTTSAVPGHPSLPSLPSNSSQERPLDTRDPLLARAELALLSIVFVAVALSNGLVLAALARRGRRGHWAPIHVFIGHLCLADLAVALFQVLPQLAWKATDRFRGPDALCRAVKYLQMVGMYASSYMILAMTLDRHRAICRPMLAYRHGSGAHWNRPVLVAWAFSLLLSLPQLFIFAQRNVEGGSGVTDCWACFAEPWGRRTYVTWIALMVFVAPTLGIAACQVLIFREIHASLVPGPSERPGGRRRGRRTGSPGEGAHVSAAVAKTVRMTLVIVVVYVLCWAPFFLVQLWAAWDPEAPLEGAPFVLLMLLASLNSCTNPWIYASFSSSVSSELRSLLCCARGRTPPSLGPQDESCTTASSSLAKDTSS

How the values were obtained:
[1] = target: AVPR2 (Homo sapiens, UniProt P30518); assay: PathHunter β-arrestin antagonist assay; type: cell-based; conditions: dose-response, reference AVPR2 antagonist
[2] = tested on: panel of 168 GPCRs; assay: PathHunter β-arrestin cell-based assays, antagonist primary screen; conditions: from the 168 GPCRs tested

IC50 [1] [pM] | Compound | hit rate [2] [%]
7.34 | Cc1ccccc1C(=O)Nc1ccc(C(=O)N2CCCC(O)c3cc(Cl)ccc32)c(C)c1 (centres unmarked) [tolvaptan] | 
 | COC(=O)[C@@H]1[C@H]2C[C@H]3c4[nH]c5ccccc5c4CCN3C[C@@H]2CC[C@@H]1O [yohimbine, reference compound] | 4.2
